Results published in patent US11311622B2, “Development of masked therapeutic antibodies to limit off-target effects” (CITY OF HOPE, priority 2010, dated 2022).
“Also recorded” adds a separate entry of the source. Each block holds one molecule with its values, some of them ahead of it.

Key:
[1] = system: HaCaT cells that express EGFR; experiment: Flow cytometry binding to HaCaT cells (anti-FLAG detection); format: cell-based; settings: before vs after MMP-9
[2] = system: Fab portion of Trastuzumab; experiment: SPR of H4Fc binding to Fab portion of Trastuzumab immobilized on CM5 chip
[3] = system: SKBR3 cells; experiment: FACS: H4Fc inhibition of Alexa 488 labeled Trastuzumab binding to SKBR3 cells; format: cell-based; settings: MMP9 overnight at 37° C.
Protocol: Alexa 488 labeled Trastuzumab was incubated with either H4Fc's at a 1:1 or 1:2 ratio for 20 min at room temperature, and then MMP9 was added for incubated an overnight incubation at 37° C. The mixtures were then applied to trypsinized SKBR3 cell suspensions for 1 hr, washed thoroughly, and subjected to FACS analysis.

B1: Masked 425: sEGFRdIII (S460P/G461N) mask, MMP-9 cleavable linker, scFv 425, FLAG and H6 tags; SEQ ID NO:6 (protein)
chain: MRPSGTAGAALLALLAALCPASRARKVCNGIGIGEFKDSLSINATNIKHFKNCTSISGDLHILPVAFRGDSFTHTPPLDPQELDILKTVKEITGFLLIAAWPENRTDLHAFENLEIIRGRTKMEGQFSLAVVSLNITSLGLRSLKEISDGDVIISGNKNLCYANTINWKKLFGTSGQKTKIISNRGENSCKATGQVCHALCSPEGCWGPEPKDCVSCRNVSRGRECCSRGGGSGGGSGGGSVPLSLYSGSTSGSGKSSEGSGSGAQGELVMTQSPAIMSASPGEKVTMTCSASSSVTYMYWYQQKPGSSPRLLIYDTSNLASGVPVRFSGSGSGTSYSLTISRMEAEDAATYYCQQWSSHIFTFGSGTKLEIKGGGGSGGGGSGGGGSQVQLVESGAELVKPGASVKLSCKASGYTFTSHWMHWVKQRAGQGLEWIGEFNPSNGRTNYNEKFKSKATLTVDKSSSTAYMQLSSLTSEDSAVYYCASRDYDYDGRYFDYWGQGTTLTVSDYKDDDDKTGHHHHHH
dependence of HaCaT cell binding on MMP-9 digestion [1]: little dependence on MMP-9 digestion; also recorded: does not exhibit an MMP-9 dependent increase in binding

ka [2]: 13770 M⁻¹ s⁻¹
kd [2]: 0.0008641 s⁻¹
B2: wildtype H4Fc: H4Fc mask with the wildtype (cleavable) MMP9 cleavage site in the linker (protein)
chain: CHQLCARGHCWGPGPTQCVNCSQFLRGQECVEECRVLQGLPREYVNARHCLPCHPECQPQNGSVTCFGPEADQCVACAHYKDPPFCVARCPSGVKPDLSYMPIWKFPDEEGACQPCPINCGSRSGGTSGGGSVPLSLYSGSTSGSGKSSEGSGQAS
modifications: left off: a dimerising Fc or GST
notes: H4Fc mask with the wildtype (cleavable) MMP9 cleavage site in the linker
effect of MMP9 addition on Trastuzumab binding to cells [3]: restored some binding of the mAb to cells
